ChEMBL document CHEMBL4428133, “Tyrosyl-DNA phosphodiesterase inhibitors: Progress and potential” (Bioorg Med Chem, 2016)

The chains behind the UniProt entries cited, without tags or fusion partners.
UniProt Q9NUW8, whole entry: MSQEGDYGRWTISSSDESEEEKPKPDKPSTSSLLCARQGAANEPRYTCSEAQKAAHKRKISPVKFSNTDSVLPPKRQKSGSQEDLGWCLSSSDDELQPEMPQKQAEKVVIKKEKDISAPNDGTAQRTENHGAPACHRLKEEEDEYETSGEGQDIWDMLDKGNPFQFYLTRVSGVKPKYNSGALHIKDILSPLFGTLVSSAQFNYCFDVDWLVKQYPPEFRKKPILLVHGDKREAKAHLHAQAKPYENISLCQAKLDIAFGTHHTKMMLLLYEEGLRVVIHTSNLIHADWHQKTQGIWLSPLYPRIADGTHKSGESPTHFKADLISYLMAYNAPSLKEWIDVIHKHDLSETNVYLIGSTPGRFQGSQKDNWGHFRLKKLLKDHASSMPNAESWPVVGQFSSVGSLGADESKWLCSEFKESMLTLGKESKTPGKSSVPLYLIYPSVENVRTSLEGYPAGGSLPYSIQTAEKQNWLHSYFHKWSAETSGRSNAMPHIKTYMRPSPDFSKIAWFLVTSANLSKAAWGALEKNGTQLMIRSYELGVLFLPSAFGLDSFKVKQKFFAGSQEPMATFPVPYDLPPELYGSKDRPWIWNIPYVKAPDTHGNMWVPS

Target: Tyrosyl-DNA phosphodiesterase 1 (Homo sapiens, UniProt Q9NUW8)
Assay: Inhibition of recombinant TDP1 (unknown origin) using 5'-32P-labeled N14Y DNA substrate incubated for 20 mins by PAGE analysis

Question: With `O=C(O)C1=CC(=C(c2ccc(O)c(C(=O)O)c2)c2ccc(O)c(C(=O)O)c2)C=CC1=O` [AURINTRICARBOXYLIC ACID] as the compound, how does the IC50 read?
Answer: The IC50 was 12 nM.
